The source of these data is ChEMBL document CHEMBL5260839 (J Med Chem, 2019).

The IC50 is the point on the concentration scale where inhibition reaches its midpoint.

This assay relates to ML-2. Put plainly: cells. The settings on record: Homo sapiens, ML-2, 96 h.

As to `O=C(O)c1ccc(NC(=O)[C@@H]2NC3(CCCCC3)[C@@]3(C(=O)Nc4cc(Cl)ccc43)[C@H]2c2cccc(Cl)c2F)cc1`, 151 nM corresponded to half-maximal inhibition (IC50).
